Source: ChEMBL document CHEMBL3621193, “New arylalkanones from Horsfieldia macrobotrys, effective antidiabetic agents concomitantly inhibiting α-glucosidase and free radicals” (Bioorg Med Chem Lett, 2015)

Sequences of proteins named here, by UniProt entry; tags and fusion partners are left off. Residues count along the entry.
UniProt P23739, 1014-1841 limits assumed: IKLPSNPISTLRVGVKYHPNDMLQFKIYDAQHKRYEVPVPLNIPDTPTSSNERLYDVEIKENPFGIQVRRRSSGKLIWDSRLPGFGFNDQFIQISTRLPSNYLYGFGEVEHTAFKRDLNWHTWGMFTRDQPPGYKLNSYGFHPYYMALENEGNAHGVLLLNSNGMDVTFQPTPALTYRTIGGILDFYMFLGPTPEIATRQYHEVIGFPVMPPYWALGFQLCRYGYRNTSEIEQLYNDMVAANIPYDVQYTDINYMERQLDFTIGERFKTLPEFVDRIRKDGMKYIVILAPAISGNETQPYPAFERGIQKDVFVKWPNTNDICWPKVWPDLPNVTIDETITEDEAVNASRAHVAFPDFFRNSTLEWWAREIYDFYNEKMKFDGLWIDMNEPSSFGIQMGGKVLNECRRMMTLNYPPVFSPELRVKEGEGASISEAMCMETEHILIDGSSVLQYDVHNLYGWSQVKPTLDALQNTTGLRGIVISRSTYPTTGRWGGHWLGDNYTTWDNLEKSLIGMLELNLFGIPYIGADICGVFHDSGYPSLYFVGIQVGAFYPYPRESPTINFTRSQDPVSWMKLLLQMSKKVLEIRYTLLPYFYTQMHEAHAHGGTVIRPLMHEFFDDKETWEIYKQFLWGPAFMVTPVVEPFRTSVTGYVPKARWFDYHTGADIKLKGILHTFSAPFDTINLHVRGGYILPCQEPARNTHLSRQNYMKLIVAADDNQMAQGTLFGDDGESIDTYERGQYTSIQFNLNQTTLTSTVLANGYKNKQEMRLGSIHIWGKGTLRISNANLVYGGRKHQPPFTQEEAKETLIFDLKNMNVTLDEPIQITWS
UniProt P23739, 1-1013 limits assumed: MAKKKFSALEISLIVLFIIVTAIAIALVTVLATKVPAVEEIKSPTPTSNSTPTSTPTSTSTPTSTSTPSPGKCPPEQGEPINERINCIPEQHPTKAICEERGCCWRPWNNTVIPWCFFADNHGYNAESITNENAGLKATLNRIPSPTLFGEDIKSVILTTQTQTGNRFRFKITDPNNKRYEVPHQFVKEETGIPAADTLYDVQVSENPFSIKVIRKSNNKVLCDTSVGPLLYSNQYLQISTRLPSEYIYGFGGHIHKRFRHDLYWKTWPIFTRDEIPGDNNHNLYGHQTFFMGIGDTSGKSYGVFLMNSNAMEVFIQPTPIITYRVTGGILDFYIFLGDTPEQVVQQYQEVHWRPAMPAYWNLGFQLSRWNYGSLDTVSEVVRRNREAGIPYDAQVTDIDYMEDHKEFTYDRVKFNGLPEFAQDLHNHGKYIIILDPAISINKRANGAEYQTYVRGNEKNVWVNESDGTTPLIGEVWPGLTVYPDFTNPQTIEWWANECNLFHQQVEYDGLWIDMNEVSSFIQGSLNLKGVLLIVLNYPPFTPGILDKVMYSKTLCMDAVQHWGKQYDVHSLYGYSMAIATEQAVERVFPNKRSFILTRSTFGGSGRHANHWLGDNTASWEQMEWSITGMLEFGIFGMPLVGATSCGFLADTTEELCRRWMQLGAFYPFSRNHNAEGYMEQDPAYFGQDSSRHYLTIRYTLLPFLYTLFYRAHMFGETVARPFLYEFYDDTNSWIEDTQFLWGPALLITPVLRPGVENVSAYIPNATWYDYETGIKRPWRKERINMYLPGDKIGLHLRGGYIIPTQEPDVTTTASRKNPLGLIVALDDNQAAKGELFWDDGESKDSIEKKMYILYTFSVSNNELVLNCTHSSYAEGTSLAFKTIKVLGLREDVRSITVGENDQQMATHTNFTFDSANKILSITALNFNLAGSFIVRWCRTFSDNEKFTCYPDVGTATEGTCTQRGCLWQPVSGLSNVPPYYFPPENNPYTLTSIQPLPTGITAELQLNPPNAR

Target: Sucrase-isomaltase, intestinal (Rattus norvegicus, UniProt P23739)
Assay: Inhibition of rat intestinal Sucrase using sucrose as substrate assessed as glucose release after 40 mins by glucose oxidase method

Structure (SMILES): C[C@H]1O[C@H](O[C@H]2[C@H](O)[C@@H](O)[C@@H](O[C@H]3[C@H](O)[C@@H](O)C(O)O[C@@H]3CO)O[C@@H]2CO)[C@H](O)[C@@H](O)[C@@H]1N[C@H]1C=C(CO)[C@@H](O)[C@H](O)[C@H]1O (stereo partly specified) [ACARBOSE]
- IC50: 26 µM
